Results as given in paper PMC7253423, “Quassinoid analogs with enhanced efficacy for treatment of hematologic malignancies target the PI3Kγ isoform” (Communications Biology, 2020).
Values joined by “and” are separate entries in the source; they are usually repeats but may differ in a detail not shown here. Equal values may be shown once.

Columns and labels:
WL-1 cells = test: Cell viability assay (CellTiter-Glo luminescence); assay type: cell-based, human
Procedure: (§1) 5000 cells as indicated were cultured in 96-well plate with 100 μl of media. On the next day, Brusatol or associated analogs were added once to the cells without media change. After treatment, the cells were incubated with 100 μl buffer for 10 min at room temperature following the instructions of CellTiter-Glo kit (Promega, Madison, WI). Luminescence was detected using a multi-mode reader Cytation 5 (BioTek, Winooski, VT). Brusatol or its analogs are dissolved in 100% ethanol and diluted in 1 × PBS for treatment. Two independent experiments done in duplicates were performed.

BJAB cells = test: Cell viability assay (CellTiter-Glo luminescence); assay type: cell-based, human; details: relative to Control, Fig 1d / Fig 5a
Procedure: as §1

LCL1 cells = test: Cell viability assay (CellTiter-Glo luminescence); assay type: cell-based, human
Procedure: as §1, with “On” for “5000 cells as indicated were cultured in 96-well plate with 100 μl of media. On”

[1] = Body weight of xenograft mice; assay type: in vivo, NOD/SCID mice; details: individual mice, Fig S3i
Procedure: Six-week-old male NOD.CB17-Prkdc^scid/J (NOD/SCID) mice (Jackson Labs, Bar Harbor, ME, USA) were used as the human-in-mouse xeno-transplantation model. MOLM14 cells (1 × 10^7 cells) were injected into the subcutaneous space on the left flank of the mice. Once xenografts reached a size of 100 mm^3, Brusatol and analogs (#14, #15, #26, #31) at 2 mg/kg body weight or PBS were injected intraperitoneally three times per week. Body weight and tumor size were monitored before every injection. After treatment for 2 weeks, the mice were euthanized by CO2 inhalation and the tumors were carefully excised. The tumor volume (mm^3) was measured and calculated using the formula (a × b × b)/2 (a, the largest diameter of two measurements; b, the smallest diameter of two measurements).

MOLT-4 cells = test: Cell viability assay (CellTiter-Glo luminescence); assay type: cell-based, human; details: MOLT-4, relative to Control, Fig 1d / Fig 5a
Procedure: as §1

LCL2 cells = test: Cell viability assay (CellTiter-Glo luminescence); assay type: cell-based, human; details: LCL2, relative to Control, Fig 1d / Fig 5a
Procedure: as §1

SU-DHL-6 cells = test: Cell viability assay (CellTiter-Glo luminescence); assay type: cell-based, human; details: SU-DHL-6, relative to Control, Fig 1d / Fig 5a
Procedure: as §1

SU-DHL-10 cells = test: Cell viability assay (CellTiter-Glo luminescence); assay type: cell-based, human; details: SU-DHL-10, relative to Control, Fig 1d / Fig 5a
Procedure: as §1

Raji cells = test: Cell viability assay (CellTiter-Glo luminescence); assay type: cell-based, human
Procedure: as §1

SU-DHL-4 cells = test: Cell viability assay (CellTiter-Glo luminescence); assay type: cell-based, human; details: for Relative cell viability: SU-DHL-4, relative to Control, Fig 1d / Fig 5a
Procedure: as §1

PBMC = test: Cytotoxicity, cell viability assay in normal cells; assay type: cell-based, human
Excerpt: (§2) Human peripheral blood mononuclear cells (PBMCs), normal T-cells and B-cells were provided by the University of Pennsylvania Human Immunology Core (HIC), and Patient-derived xenografts (PDXs) were obtained from Fox Chase Cancer Center (FCCC). These samples were from different unidentified and healthy donors with written, informed consent. All the procedures were approved by the Institutional Review Board (IRB) and conducted according to the declarations of Helsinki protocols.
as §1

normal T-cells = test: Cytotoxicity, cell viability assay in normal cells; assay type: cell-based, human; details: fraction of 0 μM control
Excerpt: as §2, §1

RPMI-8226 cells = test: Cell viability assay (CellTiter-Glo luminescence); assay type: cell-based, human; details: human
Procedure: as §1

MOLM14 cells = test: Cell viability assay (CellTiter-Glo luminescence); assay type: cell-based, human; details: human
Procedure: as §1

[2] = WL-1, relative to Control, Fig 1d / Fig 5a
[3] = LCL1, relative to Control, Fig 1d / Fig 5a
[4] = PBMC, Con. 0.015625 μM, fraction of 0 μM control

COC(=O)C12OCC34C(CC5C(C)=C(OC(=O)C(N)Cc6ccccc6)C(=O)CC5(C)C3C(O)C1O)OC(=O)C(OC(=O)C=C(C)C)C24 (stereo not shown) [#14]
Relative cell viability (WL-1 cells; [2]): 0.1587 | Relative cell viability (BJAB cells): 0.4209 | Relative cell viability (LCL1 cells; [3]): 0.1677 | Body weight ([1]; 0d): 28.7 | Body weight ([1]; 2d, in g (unit assumed)): 29.48 and 27.25 and 26.35 | Body weight ([1]; 4d, in g (unit assumed)): 27.19 and 27.16 and 27.13 (2×) | Body weight ([1]; 6d): 28.06 and 28.8 and 27.88 and 27.13 | Body weight ([1]; 10d, in g (unit assumed)): 28.49 | Body weight ([1]; 12d): 29.2

COC(=O)C12OCC34C(CC5C(C)=C(OC(=O)CNC(=O)OC(C)(C)C)C(=O)CC5(C)C3C(O)C1O)OC(=O)C(OC(=O)C=C(C)C)C24 (stereo not shown) [#15]
Relative cell viability (MOLT-4 cells): 0.0408 | Relative cell viability (LCL2 cells): 0.2738 | Relative cell viability (SU-DHL-6 cells): 0.09359 and 0.1752 | Relative cell viability (SU-DHL-10 cells): 0.0368 | relative cell viability (Fig 6f), replicates (Raji cells; Raji, Con. 0.00244141 μM, fraction of 0 μM control): 1.022 | relative cell viability (Fig 6f), replicates (Raji cells; Raji, Con. 0.00976562 μM, fraction of 0 μM control): 1.151 | Relative cell viability (Raji cells; Raji, relative to Control, Fig 1d / Fig 5a): 0.2778 | Relative cell viability (WL-1 cells; [2]): 0.1931 | relative cell viability (Fig 6d), replicates (SU-DHL-4 cells; SU-DHL-4, Con. 0.00244141 μM, fraction of 0 μM control): 1.071 | relative cell viability (Fig 6d), replicates (SU-DHL-4 cells; SU-DHL-4, Con. 10 μM, fraction of 0 μM control): 0.04515 | Relative cell viability (SU-DHL-4 cells): 0.0482 | relative cell viability (Fig 6a), replicates (PBMC; [4]): 0.8377 | relative cell viability (Fig 6a), replicates (PBMC; PBMC, Con. 0.0625 μM, fraction of 0 μM control): 0.8032 | relative cell viability (Fig 6b), replicates (normal T-cells; Con. 0.000244141 μM): 1.007 | relative cell viability (Fig 6b), replicates (normal T-cells; Con. 0.000976563 μM): 0.9626 | relative cell viability (Fig 6b), replicates (normal T-cells; Con. 0.00390625 μM): 0.8377 and 1.06 | relative cell viability (Fig 6b), replicates (normal T-cells; Con. 1 μM): 0.7967 | Relative cell viability (LCL1 cells; [3]): 0.206 | Body weight ([1]; 0d): 22.66 | Body weight ([1]; 2d, in g (unit assumed)): 22.71 | Body weight ([1]; 4d, in g (unit assumed)): 25.54 | Body weight ([1]; 6d): 24.51 and 24.49 and 25.15 | Body weight ([1]; 10d, in g (unit assumed)): 25.1 and 26.52 | Body weight ([1]; 12d): 25.08 and 25.51

COC(=O)C12OCC34C(CC5C(C)=C(OC(=O)CC(C)N)C(=O)CC5(C)C3C(O)C1O)OC(=O)C(OC(=O)C=C(C)C)C24 (stereo not shown) [#26]
relative cell viability (Fig 6f), replicates (Raji cells; human, 0.00244141 μM): 1.044 | Relative cell viability (WL-1 cells; human): 0.2025 | Relative cell viability (RPMI-8226 cells): 0.1207 | relative cell viability (Fig 6a), replicates (PBMC; human, 0.000244141 μM): 0.9372 | Relative cell viability (LCL1 cells; human): 0.2229

COC(=O)C12OCC34C(CC5C(C)=C(OC(=O)C6CCCN6)C(=O)CC5(C)C3C(O)C1O)OC(=O)C(OC(=O)C=C(C)C)C24 (stereo not shown) [#31]
Relative cell viability (MOLT-4 cells): 0.06412 | Relative cell viability (WL-1 cells; [2]): 0.1971 | Relative cell viability (SU-DHL-4 cells): 0.1148 | Cell viability, raw luminescence reading (PBMC; Con. 0.0025 μM, Fig 5c): 20227 | Relative cell viability (LCL1 cells; [3]): 0.2432 | Body weight ([1]; 0d): 25.51 and 24.78 | Body weight ([1]; 4d, in g (unit assumed)): 26.4 | Body weight ([1]; 6d): 28.13 and 26.39 and 26.17 | Body weight ([1]; 8d): 27.05 and 26.22 | Body weight ([1]; 10d, in g (unit assumed)): 28.88 | Body weight ([1]; 12d): 28.28 and 26.42

COc1c(OCCCN2CCOCC2)ccc2c1N=C(NC(=O)c1cnc(N)nc1)N1CCN=C21 [Copanlisib]
relative cell viability (Fig 6e), replicates (MOLM14 cells; 0.00244141 μM): 0.8364 | relative cell viability (Fig 6e), replicates (MOLM14 cells; 2.5 μM): 0.2034 | relative cell viability (Fig 6f), replicates (Raji cells; human, 0.00976562 μM): 1.169 | relative cell viability (Fig 6f), replicates (Raji cells; human, 10 μM): 0.1392 | relative cell viability (Fig 6d), replicates (SU-DHL-4 cells; human, 0.00244141 μM): 1.148 | relative cell viability (Fig 6a), replicates (PBMC; PBMC, Con. 0.000244141 μM, fraction of 0 μM control): 0.9767 | relative cell viability (Fig 6a), replicates (PBMC; [4]): 0.797 | relative cell viability (Fig 6b), replicates (normal T-cells; Con. 0.000976563 μM): 1.11 | relative cell viability (Fig 6b), replicates (normal T-cells; Con. 0.015625 μM): 0.9874
